Results reported in publication PMC4862888 (Journal of chromatography. B, Analytical technologies in …, 2015).

Chains of the proteins cited; added tags and fusions are not shown. Residues count along the entry.
UniProt P02768, 25-609: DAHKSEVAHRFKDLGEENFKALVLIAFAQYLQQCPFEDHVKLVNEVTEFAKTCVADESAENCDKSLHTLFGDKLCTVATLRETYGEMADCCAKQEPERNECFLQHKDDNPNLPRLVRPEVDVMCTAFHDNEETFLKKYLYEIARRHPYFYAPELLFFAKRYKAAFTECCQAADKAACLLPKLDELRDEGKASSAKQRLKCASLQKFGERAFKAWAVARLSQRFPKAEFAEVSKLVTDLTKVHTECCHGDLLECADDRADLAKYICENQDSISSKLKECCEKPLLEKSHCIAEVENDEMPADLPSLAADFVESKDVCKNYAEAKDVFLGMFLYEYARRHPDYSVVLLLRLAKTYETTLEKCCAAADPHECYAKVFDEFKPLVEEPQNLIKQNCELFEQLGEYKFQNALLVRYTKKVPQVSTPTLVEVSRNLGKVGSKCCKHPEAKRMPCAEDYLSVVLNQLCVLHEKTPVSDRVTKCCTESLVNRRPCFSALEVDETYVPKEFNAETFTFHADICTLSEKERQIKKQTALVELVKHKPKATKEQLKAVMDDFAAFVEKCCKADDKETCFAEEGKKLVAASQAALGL

Target: human serum albumin (HSA) (Homo sapiens, UniProt P02768)
Test: zonal elution, high-performance affinity chromatography on entrapped HSA
Type: binding

## CN(C)CCCN1c2ccccc2Sc2ccc(Cl)cc21 [chlorpromazine]
  Kd: 8.33 µM
